Reference: ChEMBL document CHEMBL1126381, “2-carboxy indolines and indoles as potential glycine/NMDA antagonists: effect of five-membered ring conformation on affinity” (Bioorg Med Chem Lett, 1992)

Molecular target: Glutamate receptor ionotropic, NMDA 1 (Rattus norvegicus, UniProt P35439)
Experiment: Inhibition of [3H]L-689,560 binding to Glycine site of NMDA receptor of rat cortical membranes
Assay type: cell membranes, Membrane

## COC(=O)Cc1c(C(=O)O)[nH]c2cc(Cl)ccc12
  IC50: 1780 nM
